## Yeast mating assay B: variants of the scFv Ab-14

Target peptide (SARS-CoV-2 spike, HR2 region): PDVDLGDISGINAS

Parent scFv Ab-14: VH joined to VL by a 15-residue (Gly4Ser)3 linker. Changes lie in the light chain CDRs alone.
VH: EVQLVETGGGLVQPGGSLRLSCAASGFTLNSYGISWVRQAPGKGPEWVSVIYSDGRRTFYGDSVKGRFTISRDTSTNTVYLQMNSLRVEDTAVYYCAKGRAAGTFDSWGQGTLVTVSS
VL: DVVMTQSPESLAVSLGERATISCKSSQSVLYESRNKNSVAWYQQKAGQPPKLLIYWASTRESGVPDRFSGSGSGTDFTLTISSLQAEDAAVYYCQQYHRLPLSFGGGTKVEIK

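The parent was found by panning a naive human phage display library on the peptide. These sequences belong to a second round, designed from the earlier measurements on random variants of the parent. Several design methods are mixed in this list. The scFvs were displayed on barcoded MATa yeast, the peptide on MATalpha yeast. Pairs that bind mate more often; barcode pairs of the diploids are counted by sequencing. Read counts were normalised to the haploid input and turned into Kd by a linear fit to BCL2-family pairs of known affinity, for each replicate. There are six technical replicates.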

Each variant's VL is given in full.
This list holds designs with more than six substitutions.
Kd is apparent (estimated from mating counts) and averaged on the log scale over replicates with a signal. Smaller is tighter.
Where no diploid with the target was found in any replicate, the entry reads "no signal": below detection, most likely a poor binder, though not proof of it.

With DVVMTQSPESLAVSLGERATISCKLMQSMGYESRNFNSVAWYQQKAGQPPKLLIYQASTRSSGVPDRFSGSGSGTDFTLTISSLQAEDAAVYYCQQYHRLPLSFGGGTKVEIK the result was 8.9 nM (6 of 6 replicates). Variant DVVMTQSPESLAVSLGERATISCHMSMLTMMGSRHRNSVAWYQQKAGQPPKLLIYQMTTRENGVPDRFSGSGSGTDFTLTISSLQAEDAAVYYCQQYDRLPLAFGGGTKVEIK gave 68 nM (4 of 6 replicates). With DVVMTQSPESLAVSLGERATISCMFSQLTYTGSRARNAVAWYQQKAGQPPKLLIYQAETRLNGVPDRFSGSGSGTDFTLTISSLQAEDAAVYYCQQYHHLPLIFGGGTKVEIK the result was 48 nM (6 of 6 replicates). For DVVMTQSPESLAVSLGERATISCFFSLIQGSYGEANNSIAWYQQKAGQPPKLLIYERNTKAPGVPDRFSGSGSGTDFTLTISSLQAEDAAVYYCQQYGRLPLVFGGGTKVEIK, the assay gave 590 nM (3 of 6 replicates). For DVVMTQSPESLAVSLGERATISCRVRLNEGEIDMHWYNIAWYQQKAGQPPKLLIYSVDIRADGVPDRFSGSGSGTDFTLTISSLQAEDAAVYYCQQYSRLPLFFGGGTKVEIK, the assay gave 3.3 nM (6 of 6 replicates). Variant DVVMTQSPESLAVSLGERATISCQFDMFEPYQGEQNASIAWYQQKAGQPPKLLIYGTTNRLTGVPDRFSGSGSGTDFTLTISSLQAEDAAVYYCQQYFKLPLSFGGGTKVEIK showed 2.4 nM (6 of 6 replicates). With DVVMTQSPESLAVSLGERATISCSLAYTQHFGQTQEKAIAWYQQKAGQPPKLLIYEVATREQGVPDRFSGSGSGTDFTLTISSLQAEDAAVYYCQQYFRLPLGFGGGTKVEIK the result was 9.7 nM (6 of 6 replicates). For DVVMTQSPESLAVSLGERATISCKLTMITGLEKVSGNNVAWYQQKAGQPPKLLIYEMETREKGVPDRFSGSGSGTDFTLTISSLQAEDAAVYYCQQYNRLPLSFGGGTKVEIK, the assay gave 1.4 nM (6 of 6 replicates). Variant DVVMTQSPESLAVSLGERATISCKLSMMYRYETEEKNSIAWYQQKAGQPPKLLIYELVTRMSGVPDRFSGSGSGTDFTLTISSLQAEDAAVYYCQQYHRLPLSFGGGTKVEIK gave 22 nM (3 of 6 replicates).

Variant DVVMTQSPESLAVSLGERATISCTISQGTYWESRNKNSVAWYQQKAGQPPKLLIYQTSTREEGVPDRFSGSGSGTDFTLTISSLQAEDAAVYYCQDYDRLPLSFGGGTKVEIK showed no signal (0 of 6 replicates). Variant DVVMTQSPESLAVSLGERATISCKLTMITGLEKVQKNNVAWYQQKAGQPPKLLIYEMETREEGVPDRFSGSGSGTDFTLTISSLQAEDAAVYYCQQYNRLPLSFGGGTKVEIK gave 640 pM (6 of 6 replicates). With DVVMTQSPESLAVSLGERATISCKMFQSEGMEERNVNSVAWYQQKAGQPPKLLIYHASQRLDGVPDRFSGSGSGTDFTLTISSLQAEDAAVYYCQQYHRLPLSFGGGTKVEIK the result was 990 pM (6 of 6 replicates). Variant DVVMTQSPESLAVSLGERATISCKLLQTVMNETRNRNNVAWYQQKAGQPPKLLIYHMTTREDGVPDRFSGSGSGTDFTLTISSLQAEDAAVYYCQQYHHLPLSFGGGTKVEIK gave 3.0 nM (6 of 6 replicates). Variant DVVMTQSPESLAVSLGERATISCMISQLMNLGQFAINSVAWYQQKAGQPPKLLIYQATIRNSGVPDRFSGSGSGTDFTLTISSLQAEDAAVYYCQQYDRLPLSFGGGTKVEIK gave 56 nM (4 of 6 replicates). Variant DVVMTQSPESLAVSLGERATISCMAYGGDMLESVTRNSVAWYQQKAGQPPKLLIYNAETRVDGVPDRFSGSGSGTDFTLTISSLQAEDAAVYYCQDYHRLPLSFGGGTKVEIK gave 7.4 nM (6 of 6 replicates). For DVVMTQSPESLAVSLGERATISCIVSQLMIWGMHLKNSIAWYQQKAGQPPKLLIYEAETRLNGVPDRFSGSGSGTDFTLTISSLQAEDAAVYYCQQYERLPLFFGGGTKVEIK, the assay gave 66 nM (5 of 6 replicates). With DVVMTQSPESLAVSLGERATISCKLVQEKSGGIANMQNIAWYQQKAGQPPKLLIYAADVLSQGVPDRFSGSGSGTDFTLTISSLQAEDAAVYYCQQYNKLPLSFGGGTKVEIK the result was 2.2 nM (6 of 6 replicates).

Excerpt, the final 2 entries:

| VL | Kd | seen in |
|---|---|---|
| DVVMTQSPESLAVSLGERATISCIVSQLMIWGMHLKNSIAWYQQKAGQPPKLLIYEAETRLNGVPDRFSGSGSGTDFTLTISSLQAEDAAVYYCQQYERLPLFFGGGTKVEIK | 66 nM | 5/6 |
| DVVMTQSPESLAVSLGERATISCKLVQEKSGGIANMQNIAWYQQKAGQPPKLLIYAADVLSQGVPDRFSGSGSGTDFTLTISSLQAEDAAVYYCQQYNKLPLSFGGGTKVEIK | 2.2 nM | 6/6 |

The authors' rule: three or more of the six replicates give a measured affinity, fewer mean a poor binder.
Of ten entries with the parent sequence, four were seen in most replicates (averages 2.2 nM to 240 nM), three in one and three in none, so single entries are noisy.
Empty control strains, which show no peptide, gave a signal in 4% of pairings with all light chain designs; the median was 430 nM and 95% of these signals were weaker than 38 nM. No background was subtracted.
A sequence measured in both rounds can read differently, since the two assays cover different ranges.

From the AlphaSeq antibody data of Li et al. 2023 (doi:10.1038/s41467-023-39022-2), copy in the FLAb collection.